The target of the assay is 5-hydroxytryptamine receptor 4 (Cavia porcellus) (UniProt O70528). As to the kind of experiment: 5-hydroxytryptamine 4 receptor agonist activity as percent maximum 5-HT effect in response to electrical stimulation in male guinea pig ileum. Type of assay: functional, tissue-based.

Sequences of proteins named here, by UniProt entry; tags and fusion partners are left off. A change or cut given only in a name is not applied to a line headed by its entry.
UniProt O70528: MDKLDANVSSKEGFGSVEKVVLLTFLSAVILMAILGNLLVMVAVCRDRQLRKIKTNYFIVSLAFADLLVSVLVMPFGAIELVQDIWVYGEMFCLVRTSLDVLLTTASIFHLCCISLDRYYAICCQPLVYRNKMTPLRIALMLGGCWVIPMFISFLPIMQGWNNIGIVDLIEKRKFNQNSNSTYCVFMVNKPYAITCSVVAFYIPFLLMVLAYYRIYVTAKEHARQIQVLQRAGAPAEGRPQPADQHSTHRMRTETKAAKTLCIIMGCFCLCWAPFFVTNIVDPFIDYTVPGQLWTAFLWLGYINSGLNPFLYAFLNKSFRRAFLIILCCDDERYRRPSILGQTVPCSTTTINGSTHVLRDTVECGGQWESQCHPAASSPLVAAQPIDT

Molecules are shown by their SMILES.

Activity data for two molecules are collected here from ChEMBL document CHEMBL1127907, “Design of a potent 5-HT4 receptor agonist with nanomolar affinity” (Bioorg Med Chem Lett, 1994).

In turn, `COc1cc(N)c(Cl)cc1C(=O)O[C@@H]1CN2CCC1CC2` gave an Activity of 54%.
In the case of `COc1cc(N)c(Cl)cc1C(=O)O[C@H]1CN2CCC1CC2`, the Activity was found to be 75%.
